{"source": "patent US20020198172A1", "about": "“Method of treating motor neuron diseases and demyelinating diseases with citicoline” (priority 1997, published 2002)", "molecules": {"B1": {"name": "Betaseron: drug often used to treat ALS or MS (protein, UniProt P01574 22-187, looked up)", "Interferon beta": "MSYNLLGFLQRSSNFQCQKLLWQLNGRLEYCLKDRMNFDIPEEIKQLQQFQKEDAALTIYEMLQNIFAIFRQDSSSTGWNETIVENLLANVYHQINHLKTVLEEKLEKEDFTRGKLMSSLHLKRYYGRILHYLKAKEYSHCAWTIVRVEILRNFYFINRLTGYLRN"}}, "tested_on": "patient with chronic progressive multiple sclerosis", "type": "in vivo", "conditions": "patient history since around 1986", "description": "Since around 1986, they have received the following course of treatments and therapies:\nCurrently, they are diagnosed with chronic-progressive multiple sclerosis. They are afflicted with visual impairments, chronic fatigue, difficulty with speech articulation, tremors in the right and left hands, decreased fine motor movement in the right greater than left hands and decreased motor strength in their lower extremities. They are without weight bearing and is confined to a wheelchair. When asked what their major barriers are as far as functional abilities on a day to day basis, they place fatigue at the top of their impairment list followed by speech difficulties and decreased fine motor movement of their hands. They experienced marked spasticity of their lower extremities with the progression of their neurological condition over the course of several years and eventually resorted to a baclofen pump which was implanted in 1997. […] They receive 85 micrograms of baclofen per day."}
{"molecule": "B1", "values": [{"measurement": "effect of earlier treatment on multiple sclerosis", "value": "no effect"}]}
